The text below walks through data of EP4745135A1 (Gluetacs Therapeutics (Shanghai) Co., Ltd., priority 2023, dated 2025).

What all share (assay): Tumor cell proliferation inhibition (CellTiter-Meiluncell luminescent cell viability assay)
The subject of assay [1] is Human multiple myeloma cell (MM.1S). To be noted: MM1.S, 96 h, read-out: Inhibitory activity (IC50, nM) on tumor cell proliferation, MM.1S.
Assay [2] has as its system Human multiple myeloma peripheral blood B lymphocyte cell (RPMI-8226). As to conditions: RPMI-8226, 96 h.
The subject of assay [3] is Human breast cancer cell (MCF-7). As to conditions: MCF7, 96 h.
Assay [4] has as its system Human T lymphocytic leukemia cell line: Jurkat. To be noted: 96 h, read-out: Inhibitory activity (IC50, nM) on tumor cell proliferation, Jurkat.
Assay [5] deals with Human non-small cell lung cancer cell line: NCI-H1975. To be noted: NCI-H1975, 96 h, read-out: Inhibitory activity (IC50, nM) on tumor cell proliferation, H1975.
The subject of assay [6] is Human mantle cell lymphoma cell line: JEKO-1. To be noted: JeKo-1, 96 h, read-out: Inhibitory activity (IC50, nM) on tumor cell proliferation, JEKO-1.
In assay [7] the test system is Human gastric cancer cell line: MGC803. To be noted: MGC-803, read-out: Inhibitory activity (IC50, nM) on tumor cell proliferation, MGC803.
Assay [8] relates to Human diffuse large B-cell lymphoma cell line: TMD8. To be noted: TMD8, 96 h, read-out: Inhibitory activity (IC50, nM) on tumor cell proliferation, TMD8.

Broadly, the inhibition is the share of the control response that was lost under treatment. As to `Nc1cccc2c1CN(C1CCC(=O)NC1=O)C2=O` (stereo not shown) [lenalidomide, reference compound], the IC50 in assay [1] is > 10000 nM; in assay [2] (read-out: Inhibitory activity (IC50, nM) on tumor cell proliferation, RPMI-8226) it was > 10000 nM; in assay [3] (read-out: Inhibitory activity (IC50, nM) on tumor cell proliferation, MCF7) it was > 10000 nM; in assay [4] it was > 10000 nM; in assay [5], > 10000 nM; in assay [6] it was > 10000 nM. Further, the IC50 in assay [7] and in assay [8] was > 10000 nM throughout. Further, in assay [2] (read-out: Inhibition Rate at 10 nM (%)), the inhibition at 0.01 µM was in the range of 5 to 10%. For the same compound, in assay [3] (read-out: Inhibition Rate at 500 nM (%)), the inhibition at 0.5 µM was 5 to 10%.
